By UniProt entry, the sequences of proteins in these tests, tags left out. Residues count along the entry.
UniProt Q00960, 27-1482: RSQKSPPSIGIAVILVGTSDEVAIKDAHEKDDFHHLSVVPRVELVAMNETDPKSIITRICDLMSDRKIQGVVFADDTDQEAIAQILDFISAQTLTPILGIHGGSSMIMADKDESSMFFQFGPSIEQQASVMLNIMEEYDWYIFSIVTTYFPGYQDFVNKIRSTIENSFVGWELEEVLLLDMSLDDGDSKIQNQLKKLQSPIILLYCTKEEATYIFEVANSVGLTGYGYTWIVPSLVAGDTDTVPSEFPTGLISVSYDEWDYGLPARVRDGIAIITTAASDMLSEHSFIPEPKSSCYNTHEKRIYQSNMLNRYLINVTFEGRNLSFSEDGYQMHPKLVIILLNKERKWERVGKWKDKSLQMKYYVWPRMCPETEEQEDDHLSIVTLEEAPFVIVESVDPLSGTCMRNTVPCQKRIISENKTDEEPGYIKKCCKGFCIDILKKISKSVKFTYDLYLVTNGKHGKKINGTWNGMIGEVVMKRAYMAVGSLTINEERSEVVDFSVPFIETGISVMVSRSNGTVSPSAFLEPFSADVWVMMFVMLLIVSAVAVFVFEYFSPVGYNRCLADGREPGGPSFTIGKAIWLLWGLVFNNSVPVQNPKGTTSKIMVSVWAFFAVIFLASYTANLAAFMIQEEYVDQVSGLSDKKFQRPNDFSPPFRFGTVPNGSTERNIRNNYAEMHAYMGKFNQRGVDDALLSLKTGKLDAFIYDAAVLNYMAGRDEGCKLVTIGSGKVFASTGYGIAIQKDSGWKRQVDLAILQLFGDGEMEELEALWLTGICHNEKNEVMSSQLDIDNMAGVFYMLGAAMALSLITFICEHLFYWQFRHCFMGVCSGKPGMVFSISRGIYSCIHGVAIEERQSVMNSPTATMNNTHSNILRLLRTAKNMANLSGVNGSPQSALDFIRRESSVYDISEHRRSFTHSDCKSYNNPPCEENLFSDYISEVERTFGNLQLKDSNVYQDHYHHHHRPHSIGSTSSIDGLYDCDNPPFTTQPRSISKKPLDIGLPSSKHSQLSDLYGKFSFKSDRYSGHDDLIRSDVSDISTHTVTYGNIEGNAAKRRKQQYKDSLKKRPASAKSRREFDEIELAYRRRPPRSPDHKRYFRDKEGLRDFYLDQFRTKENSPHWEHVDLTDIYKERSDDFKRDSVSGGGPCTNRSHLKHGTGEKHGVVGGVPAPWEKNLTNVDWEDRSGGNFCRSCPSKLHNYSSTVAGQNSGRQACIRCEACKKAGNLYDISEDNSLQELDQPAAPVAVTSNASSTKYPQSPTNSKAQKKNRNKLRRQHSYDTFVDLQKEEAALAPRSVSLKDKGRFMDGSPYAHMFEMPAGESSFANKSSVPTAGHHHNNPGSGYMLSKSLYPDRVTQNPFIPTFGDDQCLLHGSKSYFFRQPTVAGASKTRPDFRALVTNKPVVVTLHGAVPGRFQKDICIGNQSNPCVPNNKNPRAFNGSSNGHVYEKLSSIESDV
UniProt Q00960, 27-1482 E236A: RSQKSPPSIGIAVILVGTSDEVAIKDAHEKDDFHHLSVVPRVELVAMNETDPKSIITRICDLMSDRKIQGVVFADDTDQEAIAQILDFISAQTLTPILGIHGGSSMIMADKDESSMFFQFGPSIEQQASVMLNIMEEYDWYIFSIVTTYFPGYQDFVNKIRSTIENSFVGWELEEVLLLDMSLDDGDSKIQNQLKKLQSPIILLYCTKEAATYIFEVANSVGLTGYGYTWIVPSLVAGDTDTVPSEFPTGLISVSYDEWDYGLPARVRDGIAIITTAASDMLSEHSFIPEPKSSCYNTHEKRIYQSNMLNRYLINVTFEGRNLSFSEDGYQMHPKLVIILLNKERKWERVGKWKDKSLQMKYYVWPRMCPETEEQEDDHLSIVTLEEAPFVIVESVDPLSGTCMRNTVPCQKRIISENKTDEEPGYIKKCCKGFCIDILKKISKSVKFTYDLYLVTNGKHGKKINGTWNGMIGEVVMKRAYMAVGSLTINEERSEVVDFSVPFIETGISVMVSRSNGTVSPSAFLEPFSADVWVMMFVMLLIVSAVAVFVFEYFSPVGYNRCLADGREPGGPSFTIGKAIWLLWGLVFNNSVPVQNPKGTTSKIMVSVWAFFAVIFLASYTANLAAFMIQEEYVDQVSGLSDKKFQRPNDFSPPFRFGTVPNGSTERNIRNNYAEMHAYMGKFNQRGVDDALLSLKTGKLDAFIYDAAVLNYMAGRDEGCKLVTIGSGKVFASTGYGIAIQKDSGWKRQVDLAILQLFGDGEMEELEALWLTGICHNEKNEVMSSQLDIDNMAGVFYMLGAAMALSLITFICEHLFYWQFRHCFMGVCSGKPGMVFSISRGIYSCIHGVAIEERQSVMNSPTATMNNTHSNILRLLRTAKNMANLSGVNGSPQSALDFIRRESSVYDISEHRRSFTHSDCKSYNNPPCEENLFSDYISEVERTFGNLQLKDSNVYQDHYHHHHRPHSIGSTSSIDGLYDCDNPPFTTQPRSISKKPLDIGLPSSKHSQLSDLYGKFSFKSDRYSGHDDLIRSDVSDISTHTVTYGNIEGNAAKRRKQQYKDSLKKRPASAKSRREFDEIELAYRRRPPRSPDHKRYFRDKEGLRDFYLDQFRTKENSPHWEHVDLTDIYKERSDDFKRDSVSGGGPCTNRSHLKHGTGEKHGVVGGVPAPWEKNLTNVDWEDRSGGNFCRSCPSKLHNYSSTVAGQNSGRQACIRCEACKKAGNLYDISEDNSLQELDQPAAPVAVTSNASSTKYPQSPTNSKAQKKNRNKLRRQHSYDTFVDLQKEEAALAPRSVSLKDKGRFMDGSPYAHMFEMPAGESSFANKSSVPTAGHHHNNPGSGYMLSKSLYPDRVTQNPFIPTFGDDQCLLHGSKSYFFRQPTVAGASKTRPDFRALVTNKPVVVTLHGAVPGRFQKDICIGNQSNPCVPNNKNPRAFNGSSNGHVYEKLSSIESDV
UniProt Q00960, 27-1482 I111A: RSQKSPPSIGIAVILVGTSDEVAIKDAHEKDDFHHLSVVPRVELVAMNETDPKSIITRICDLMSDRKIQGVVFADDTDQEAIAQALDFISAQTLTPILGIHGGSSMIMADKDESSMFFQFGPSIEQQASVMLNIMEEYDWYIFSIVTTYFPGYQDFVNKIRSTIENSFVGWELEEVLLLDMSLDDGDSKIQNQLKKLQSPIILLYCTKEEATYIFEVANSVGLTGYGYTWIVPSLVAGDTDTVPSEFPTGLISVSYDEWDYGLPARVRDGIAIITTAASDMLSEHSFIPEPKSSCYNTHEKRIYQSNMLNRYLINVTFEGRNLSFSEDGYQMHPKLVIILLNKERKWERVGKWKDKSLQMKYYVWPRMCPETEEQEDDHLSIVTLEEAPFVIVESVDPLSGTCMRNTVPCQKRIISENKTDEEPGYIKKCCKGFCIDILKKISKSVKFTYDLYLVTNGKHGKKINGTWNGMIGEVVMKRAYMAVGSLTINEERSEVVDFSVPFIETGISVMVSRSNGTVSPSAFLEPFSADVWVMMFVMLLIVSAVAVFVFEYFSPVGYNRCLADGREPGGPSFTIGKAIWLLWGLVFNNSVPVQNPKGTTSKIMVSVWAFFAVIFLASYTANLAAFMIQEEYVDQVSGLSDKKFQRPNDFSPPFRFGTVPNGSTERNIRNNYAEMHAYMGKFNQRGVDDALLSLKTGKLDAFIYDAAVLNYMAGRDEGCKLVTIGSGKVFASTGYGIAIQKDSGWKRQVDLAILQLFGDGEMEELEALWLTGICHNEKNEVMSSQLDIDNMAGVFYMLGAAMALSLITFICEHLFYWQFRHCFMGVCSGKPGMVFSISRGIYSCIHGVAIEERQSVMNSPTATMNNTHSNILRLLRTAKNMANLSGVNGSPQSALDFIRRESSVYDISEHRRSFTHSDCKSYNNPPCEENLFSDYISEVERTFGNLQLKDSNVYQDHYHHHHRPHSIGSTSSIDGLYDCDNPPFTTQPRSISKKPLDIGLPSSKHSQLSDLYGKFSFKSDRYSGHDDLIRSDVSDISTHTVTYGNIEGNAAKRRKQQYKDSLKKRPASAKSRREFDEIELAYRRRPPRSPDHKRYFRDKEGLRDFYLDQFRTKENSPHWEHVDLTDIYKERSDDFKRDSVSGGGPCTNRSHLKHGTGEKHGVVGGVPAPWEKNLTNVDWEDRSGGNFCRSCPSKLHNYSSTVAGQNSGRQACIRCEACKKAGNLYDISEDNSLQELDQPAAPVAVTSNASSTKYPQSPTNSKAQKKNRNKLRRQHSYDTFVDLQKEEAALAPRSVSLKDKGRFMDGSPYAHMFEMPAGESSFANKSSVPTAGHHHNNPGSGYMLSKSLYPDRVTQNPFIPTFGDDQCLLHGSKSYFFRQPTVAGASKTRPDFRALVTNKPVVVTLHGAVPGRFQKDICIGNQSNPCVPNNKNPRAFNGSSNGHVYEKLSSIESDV

In PMC6858350, “A common mechanism allows selective targeting of GluN2B subunit-containing N-methyl-D-aspartate receptors” (Communications Biology, 2019):

Assays:
GluN1-1a S132A/GluN2B WT = GluN1-1a S132A/GluN2B WT (Rattus norvegicus, UniProt P35439+Q00960, S132A)
GluN1-1a Y109S/GluN2B WT = GluN1-1a Y109S/GluN2B WT (Rattus norvegicus, UniProt P35439+Q00960, Y109S); details: mutant IC50 / wildtype IC50, GluN1-1a Y109S
GluN1-1a WT/GluN2B E236A = GluN1-1a WT/GluN2B E236A (Rattus norvegicus, UniProt P35439+Q00960, E236A); assay: cell-based
GluN1-1a WT/GluN2B I111A = GluN1-1a WT/GluN2B I111A (Rattus norvegicus, UniProt P35439+Q00960, I111A); details: mutant IC50 / wildtype IC50, GluN2B I111A
GluN1-1a F113S/GluN2B WT = GluN1-1a F113S/GluN2B WT (Rattus norvegicus, UniProt P35439+Q00960, F113S); details: mutant IC50 / wildtype IC50, GluN1-1a F113S

Row | SMILES | p (slope) (GluN1-1a S132A/GluN2B WT) | IC50 shift factor (GluN1-1a Y109S/GluN2B WT) | IC50 (GluN1-1a WT/GluN2B E236A) [µM] | IC50 shift factor (GluN1-1a WT/GluN2B I111A) | IC50 shift factor (GluN1-1a F113S/GluN2B WT)
1 | Oc1ccc2c(c1)CCN(CCCCc1ccccc1)C[C@@H]2O [compound (R)-1] | 0.74 |  |  |  | 
2 | Oc1ccc2c(c1)CCN(CCCCc1ccccc1)C[C@H]2O [compound (S)-1] |  | 3.7 | 1.98 ± 0.597 | 7.6 | 3.7
